# Measurements: PubChem BioAssay AID652106 (National Center for Advancing Translational Sciences (NCATS), 2013)
# The entries are a selection whose mix differs from that of the whole data set. Activity calls are given as the source filed them. Calls come from the whole dose curve; as a rule, active = well fitted activation curve with a large enough effect; inconclusive = small, poorly fitted or top-dose-only effect; inactive = no such curve, though single readings can be large or run the other way.
# Test: qHTS of alpha-syn Inhibitors; note: % of control where 0% means no effect; nearly all actives have a fitted effect of over 65% in size
# Details: Yeast expressing alpha-synuclein, BacTiter-Glo, 24 h; at 46.1 µM (top of the series)
# From the text: The goal of this project is to identify new chemical probes capable of reversing the toxicity associated with the Parkinson disease-related protein, alpha-synuclein. Compounds will be selected on their ability to restore growth in yeast cells expressing toxic levels of alpha-synuclein. These compounds will provide a complementary approach to deciphering the tangled mechanisms of toxicity and protection that we have uncovered through genome-wide genetic screens and are beginning to uncover in a large-scale proteomics analysis with mass spectroscopy. To this end, a miniaturized assay was developed to be screened against the Molecular Libraries Small Molecule Repository (MLSMR) to discover alpha-synuclein inhibitors. Please note that in the set-up this yeast-based assay compounds that inhibit as alpha-syn, have a read-out as activators. NIH Chemical Genomics Center [NCGC] NIH Molecular Libraries Probe Centers Network [MLPCN] MLPCN Grant: NS060957 Assay Submitter (PI): Susan Lindquist, Whitehead Institute/MIT
# Dispense 2.5 microL yeast galactose medium per 1536-well plate, pin compound, dispense 2.5 microL alpha-synuclein expressing yeast in galactose medium at OD600=0.02 (pregrown in raffinose medium to mid-log phase) per well, incubate for 24 hr at 30 deg C, and cell growth will be measured using 5 microL of Bactiter/Glo reagent to entire plate and read using Luminescence Protocol in ViewLux.
row,SMILES,growth rescue (activation)
1,Cc1ccc(NP(C)(=O)Oc2ccccc2)c(C)c1 (configuration not stated),inactive: 11.1%
2,COc1ccccc1OP(C)(=O)Nc1ccc(C)cc1 (configuration not stated),inactive: -3.76%
3,CCOC(=O)c1ccc(NP(C)(=O)Oc2ccccc2)cc1 (configuration not stated),inactive: 0.0555%
4,Cc1cc(C)cc(OP(C)(N)=O)c1 (configuration not stated),inactive: -3.75%
5,COc1ccc(OP(C)(=O)Nc2cccc(F)c2)cc1 (configuration not stated),inactive: -9.84%
6,COc1ccccc1OP(C)(=O)Nc1cc(Cl)ccc1C (configuration not stated),inactive: -5.14%
7,CCN(CC)CCCOC(=O)C(O)(c1ccccc1)c1ccccc1,inactive: 0.0512%
8,COc1ccccc1-c1ccccn1.O=[N+]([O-])c1cc([N+](=O)[O-])c(O)c([N+](=O)[O-])c1,inactive: -4.41%
9,CP(=O)(Oc1ccccc1)OC(c1ccccc1)C(F)(F)F (configuration not stated),inactive: 6.24%
10,Cc1cccc(C)c1OP(C)(=O)Nc1ccc(SC(F)(F)F)cc1 (configuration not stated),inactive: 3.29%
11,CP(=O)(Nc1ccc(SC(F)(F)F)cc1)Oc1ccc(Cl)cc1 (configuration not stated),inactive: -14%
12,Cc1cc(C)cc(OP(C)(=O)Nc2ccc(SC(F)(F)F)cc2)c1 (configuration not stated),inactive: 4.91%
13,CCc1ccc(OP(C)(=O)N2CCN(c3ccc([N+](=O)[O-])cc3)CC2)cc1 (configuration not stated),inactive: 0.875%
14,CP(=O)(NC(=O)Nc1ccccc1)Oc1ccccc1 (configuration not stated),inactive: -8.57%
15,CCOC(=O)c1ccc(NP(C)(=O)Oc2ccc(OC)cc2)cc1 (configuration not stated),inactive: 0.359%
16,O=[N+]([O-])c1cc([N+](=O)[O-])c(O)c([N+](=O)[O-])c1.c1ccc(Oc2ccncc2)cc1,inactive: -2.03%
17,CCOP(C)(=S)SCC(=O)NC(C)C(=O)O (configuration not stated),inactive: -12.8%
18,CP(=O)(Nc1ccccn1)Oc1ccc(Cl)cc1 (configuration not stated),inactive: -5.75%
19,CP(=S)(Nn1cnnc1)Oc1ccccc1 (configuration not stated),inactive: 0.0409%
20,CP(=O)(Nc1ccccc1Br)Oc1ccccc1 (configuration not stated),inactive: -0.355%
21,COc1ccccc1OP(C)(=O)Nc1ccccc1 (configuration not stated),inactive: -6.69%
22,Nc1ccc2c(ccc3cccnc32)n1.O=[N+]([O-])c1cc([N+](=O)[O-])c(O)c([N+](=O)[O-])c1,inactive: 5.92%
23,CCOC(=O)c1ccc(NP(C)(=O)Oc2ccc(Cl)cc2)cc1 (configuration not stated),inactive: 14.8%

row,SMILES,growth rescue (activation)
1,CP(=O)(OC12CC3CC(CC(C3)C1)C2)OC12CC3CC(CC(C3)C1)C2,inactive: 20.6%
2,COc1ccc(OP(C)(=O)Nc2ccc(Br)cc2)cc1 (configuration not stated),inactive: 17.1%
3,CCN(CC)CC(O)COC(=O)C(O)(c1ccccc1)C1CCCCC1 (configuration not stated),inactive: -2.67%
4,N#[O+].[C-]#N.[C-]#N.[C-]#N.[C-]#N.[C-]#N.[Fe+2].[Na+].[Na+],inactive: 0.826%
5,O=C(OCCCN1CCCC1)C(O)(c1ccccc1)C1CCCCC1 (configuration not stated),inactive: -5.66%
6,COc1ccccc1OP(C)(=O)Nc1c(C)n(C)n(-c2ccccc2)c1=O (configuration not stated),inactive: -0.481%
7,CCc1ccc(OP(C)(=O)Nc2cccnc2)cc1 (configuration not stated),inactive: -2.48%
8,CP(=O)(Oc1ccccc1)N1CCOC1=O (configuration not stated),inactive: -2.91%
9,CC(C)(C)c1ccc(OP(C)(=O)O)cc1,inactive: 4.52%
10,COc1ccccc1OP(C)(=O)Nc1ccccc1Br (configuration not stated),inactive: -1.11%
11,CP(=O)(Nc1ccc(Cl)cc1)Oc1ccc(F)cc1 (configuration not stated),inactive: -0.607%
12,CN(C)C(=O)c1c([N+](=O)[O-])cc([N+](=O)[O-])cc1[N+](=O)[O-],inactive: -3.56%
13,COc1ccccc1OP(C)(=O)Nc1ccc(Br)cc1 (configuration not stated),inactive: 5.73%
14,COc1ccc(OP(C)(=O)Nc2ccccn2)cc1 (configuration not stated),inactive: -0.779%
15,CN(C)CCOC(=O)C(O)(c1ccccc1)C1CCCC1 (configuration not stated),inactive: 2.62%
16,O=[N+]([O-])c1cc([N+](=O)[O-])c(Nc2ccccn2)c([N+](=O)[O-])c1,inactive: -3.46%
17,Cc1c(NP(C)(=O)Oc2ccc(C(C)C)cc2)c(=O)n(-c2ccccc2)n1C (configuration not stated),inactive: 0.283%
18,COc1ccccc1OP(C)(=O)Nc1ccc(C)cc1C (configuration not stated),inactive: -1.29%
19,CP(=O)(Nc1ccccn1)Oc1ccccc1 (configuration not stated),inactive: -6.15%
20,CCc1ccc(OP(C)(=O)O)cc1,inactive: -0.149%
21,Cc1cc(C)cc(OP(C)(=O)Nc2cccc(C(F)(F)F)c2)c1 (configuration not stated),inactive: 3.01%
22,COc1ccccc1OP(C)(=O)Nc1ccc(C)c(C)c1 (configuration not stated),inactive: -4.81%
23,COc1ccc(OP(C)(=O)Nc2ccccc2Br)cc1 (configuration not stated),inactive: -0.463%

row,SMILES,growth rescue (activation)
1,CP(=O)(OCCOc1ccccc1)OCCOc1ccccc1,inactive: 6.22%
2,CCCCCCCCCCCCCCCC1C[N+](C)(C)CCOP(C)(=O)O1 (configuration not stated),inactive: -53.5%
3,CP(=O)(Nc1ccc(Cl)cc1Cl)Oc1ccccc1 (configuration not stated),inactive: 8.61%
4,CCOC(=O)c1ccc(NP(C)(=O)Oc2ccc(F)cc2)cc1 (configuration not stated),inactive: 3.24%
5,COc1ccc(OP(C)(=O)Nc2ccc(SC(F)(F)F)cc2)cc1 (configuration not stated),inactive: 2.72%
6,Cc1c([N+](=O)[O-])cc([N+](=O)[O-])c(Br)c1[N+](=O)[O-],inactive: 0.708%
7,CCN(CC)CCCOC(=O)C(O)(c1ccccc1)C1CCCCC1 (configuration not stated),inactive: -0.0417%
8,CP(=O)(Nc1ccccc1)Oc1ccc(F)cc1 (configuration not stated),inactive: 0.267%
9,CCCCCOc1ccc(NP(C)(=O)Oc2ccc(Cl)cc2Cl)cc1 (configuration not stated),inactive: 0.689%
10,CP(=O)(Nc1ccccc1F)Oc1ccccc1 (configuration not stated),inactive: -4.7%
11,O=C(OCCN1CCN(CCOCc2ccccc2)CC1)C(O)(c1ccccc1)c1ccccc1,inactive: 20.2%
12,CP(=O)(Nc1ccc(SC(F)(F)F)cc1)Oc1ccc(F)cc1 (configuration not stated),inactive: -2.51%
13,CCOP(C)(=S)SCC(=O)NC(C)(CC)C(=O)O (configuration not stated),inactive: 1.13%
14,CP(=O)(Nc1ccc2c(c1)OCCO2)Oc1ccccc1 (configuration not stated),inactive: 4.12%
15,Cc1ccccc1NP(C)(=O)Nc1ccccc1C,inactive: -0.742%
16,COc1ccc(OP(C)(=O)Nc2cccc(Br)c2)cc1 (configuration not stated),inactive: 4.05%
17,CN(C)CCOC(=O)C(O)(c1ccccc1)C1CCCCC1 (configuration not stated),inactive: 6.51%
18,COc1ccc(NP(C)(=O)Oc2ccccc2OC)cc1 (configuration not stated),inactive: 6%
19,O=[N+]([O-])c1ccc(OP2(=O)COCCO2)cc1 (configuration not stated),inactive: -4.44%
20,Cc1cc(-c2cccc3ccccc23)c(C)cn1.O=[N+]([O-])c1cc([N+](=O)[O-])c(O)c([N+](=O)[O-])c1,inactive: -4.78%
21,Cc1c(C(c2ccc3c(c2)OCO3)c2c(C)n(C)n(-c3ccccc3)c2=O)c(=O)n(-c2ccccc2)n1C.O=[N+]([O-])c1cc([N+](=O)[O-])c(O)c([N+](=O)[O-])c1,inactive: 1.66%
